From US20180086837A1 (Ablynx, published 2018)

Amino acid sequences for entries named in this document (tags omitted).
UniProt P61073, whole entry D187V: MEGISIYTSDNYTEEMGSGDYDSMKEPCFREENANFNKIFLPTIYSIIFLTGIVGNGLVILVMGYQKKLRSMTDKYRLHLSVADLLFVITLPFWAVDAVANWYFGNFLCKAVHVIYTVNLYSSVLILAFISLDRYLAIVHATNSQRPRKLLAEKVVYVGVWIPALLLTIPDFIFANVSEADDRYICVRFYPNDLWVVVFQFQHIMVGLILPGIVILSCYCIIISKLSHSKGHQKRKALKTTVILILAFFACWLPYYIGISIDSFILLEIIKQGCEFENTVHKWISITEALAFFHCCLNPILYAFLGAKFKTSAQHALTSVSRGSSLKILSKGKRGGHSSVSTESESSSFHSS
UniProt P61073, whole entry F189V: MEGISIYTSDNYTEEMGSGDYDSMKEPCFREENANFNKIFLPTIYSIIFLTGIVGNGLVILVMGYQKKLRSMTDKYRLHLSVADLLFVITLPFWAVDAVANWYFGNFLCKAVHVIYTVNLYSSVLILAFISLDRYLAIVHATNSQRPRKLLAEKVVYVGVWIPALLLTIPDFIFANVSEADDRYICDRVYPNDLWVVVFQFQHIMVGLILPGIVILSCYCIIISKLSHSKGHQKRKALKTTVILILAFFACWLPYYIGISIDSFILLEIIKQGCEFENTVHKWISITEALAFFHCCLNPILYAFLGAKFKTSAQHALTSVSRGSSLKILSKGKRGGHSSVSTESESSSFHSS

B1: Nanobody 15A1 (VHH)
VHH: EVQLVESGGGLVQAGGSLRLSCAASGRTFSRAAMGWFRQAPGKEREFVGCALSSAGSALTADSVKGRFTISRDNAKNMVYLQMNNLKPEDTAVYSCVAGGYCTRAGVYPYWGQGTQVTVSS
notes: also called 15A01
B2: Nanobody 281D4 (VHH)
VHH: EVQLVESGGGLVQAGGSLRLSCAASGGTFNNYAMGWFRRAPGKEREFVAAISRSGVRTGVSALYGDSVKDRFTISRDNAKNTLYLQMNKMKPEDTAVYTCAASAIGSGALRRFEYDSSGQGTQVTVSS
notes: Purified Nanobody
B3: Nanobody 10C3 (VHH)
VHH: EVQLVESGGGLVQPGGSLRLSCAASGTIFSTSTMGWYSQAPGKQRELVADITFLGSAKYADSVKGRFTISRDKIKNTVYLQMNSLKPEDTAAYYCNARQSTFRGVHYNYWGQGTQVTVSS
notes: also called 10C03
B4: Nanobody 15G11 (VHH)
VHH: EVQLVESGGGLVQAGDSLRVSCAASGRTSSYAMAWFRQAPGKEREFVGTISRTNSRTKYADFVEGRFTISRDNAKSTLSLQMTSLKPEDTAVYYCAAKWTGNSYHDYTWSKVDEYNVWGQGTQVTVSS

These binders were tested against T1, hCXCR4 D187V (human, UniProt P61073 1-352) (assay: flow cytometry, transfected HEK293T cells, 10 nM, normalised to 12G5).
T1 construct: whole, on cells

Binder	% binding relative to hCXCR4
B1	115%
B2	0.9%
B3	12.8%
B4	35.4%

Each binder was assayed against T2, hCXCR4 F189V (human, UniProt P61073 1-352) in the same assay as above.
T2 construct: whole, on cells

Binder	% binding relative to hCXCR4
B1	0.8%
B2	0.5%
B3	0.9%
B4	0.1%

The binders below were run against T1, hCXCR4 D187V (assay: flow cytometry, transfected HEK293T cells, 100 nM, normalised to 12G5).

Binder	% binding relative to hCXCR4
B1	108%
B2	0.6%
B3	24.7%
B4	50.3%

What follows are binders tested against T2, hCXCR4 F189V in the same assay as above.

Binder	% binding relative to hCXCR4
B1	1.9%
B2	0.5%
B3	0.6%
B4	0.1%
